Assays:
[1] = Polyplex ζ-potential (PALS/ELS); format: physicochemical; settings: pH 7.2
[2] = Polyplex size distribution and PDI by DLS; format: physicochemical; settings: pH 7.2

Me-LPEI−/−[N3:DBCO]-PEG36-DUPA [Me-LPEI-l-[N3:DBCO]-PEG36-DUPA]
ζ- pot (mV), DTS1070 [1]: 28.2 mV
DLS (nm), DTS1070 [2]: 140 nm
PDI, DTS1070 [2]: 0.132

— US20260000700A1, “TARGETED LINEAR CONJUGATES COMPRISING POLYETHYLENEIMINE AND POLYETHYLENE GLYCOL AND POLYPLEXES COMPRISING THE SAME” (TARGIMMUNE THERAPEUTICS AG, priority 2022, published 2026)
